Binding of CDR-mutated scFvs to a peptide of the spike HR2 region

Values reported by Li et al. 2023, doi:10.1038/s41467-023-39022-2 (FLAb copy).

Binding partner: SARS-CoV-2 spike HR2 peptide, sequence PDVDLGDISGINAS.

Ab-14 is the parent antibody, in scFv form: VH, then three GGGGS repeats, then VL. The light chain is unchanged in all variants.
VH: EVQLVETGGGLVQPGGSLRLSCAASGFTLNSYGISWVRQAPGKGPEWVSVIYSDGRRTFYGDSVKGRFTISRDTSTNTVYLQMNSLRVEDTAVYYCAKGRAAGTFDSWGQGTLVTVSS
VL: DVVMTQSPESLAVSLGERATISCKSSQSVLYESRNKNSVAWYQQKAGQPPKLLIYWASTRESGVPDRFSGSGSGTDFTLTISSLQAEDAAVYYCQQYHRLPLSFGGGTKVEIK

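The starting antibody came from a phage panning campaign against this peptide. The variants were designed computationally from a first round of random CDR variants and then made and measured. Several design methods are mixed in this list. Affinity was read by AlphaSeq, a pooled yeast mating assay with surface-displayed partners. Pairs that bind mate more often; barcode pairs of the diploids are counted by sequencing. The ratio of observed to expected reads was calibrated, replicate by replicate, on BCL2-family standards whose Kd was known from biolayer interferometry. There are six technical replicates.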

Variants are written as CDR1, CDR2 and CDR3 of the heavy chain (limits as in the source). Parent: GFTLNSYGIS, VIYSDGRRTFYGDSVK, GRAAGTFDS. The read-out is the apparent dissociation constant on a log10 scale (nM): the lower, the stronger. Replicates are averaged; those with no signal do not enter the mean. Where no diploid with the target was found in any replicate, the entry reads "not detected": below detection, most likely a poor binder, though not proof of it. The range of this assay differs from that of the first round, and the authors advise against merging the two. In the paper, a design with two or fewer of six values counts as a poor binder. The parent sequence was in this pool as ten entries: three were never detected, three once, and four in most replicates, with averages from 0.34 to 2.37. Empty control strains, which show no peptide, gave a signal in 1% of pairings with all heavy chain designs; the median was 2.08 and 95% of these signals were weaker than 0.84. No background was subtracted.

{"CDR-H1": "GFDLNEYGIS", "CDR-H2": "VIYADGQRTAYADDVK", "CDR-H3": "GNVAGTFDL", "mean log10 Kd (nM)": "-0.59", "seen in": "6 of 6"}
{"CDR-H1": "GFDLNEYGIS", "CDR-H2": "VIYADGMRTAYSDSVK", "CDR-H3": "GANAGTFDL", "mean log10 Kd (nM)": "-0.66", "seen in": "6 of 6"}
{"CDR-H1": "GFDLNEYGIS", "CDR-H2": "VIYADGRRTAYADSVK", "CDR-H3": "GNQAGTFDV", "mean log10 Kd (nM)": "-0.68", "seen in": "6 of 6"}
{"CDR-H1": "GFDLNEYGIS", "CDR-H2": "VIYADGQRTAYADSVK", "CDR-H3": "GKIAGTFDS", "mean log10 Kd (nM)": "-0.87", "seen in": "6 of 6"}
{"CDR-H1": "GFDLDEYGIS", "CDR-H2": "VIYADGMRTAYSDSVK", "CDR-H3": "GNVAGTFDT", "mean log10 Kd (nM)": "-0.61", "seen in": "6 of 6"}
{"CDR-H1": "GFDLNEYGIS", "CDR-H2": "VIYADGRRTFYTDSVK", "CDR-H3": "GEIAGIFDV", "mean log10 Kd (nM)": "-0.07", "seen in": "6 of 6"}
{"CDR-H1": "GFTLNEYGIS", "CDR-H2": "VIYSDGRRTFYGDSVK", "CDR-H3": "GRAAGTFKT", "mean log10 Kd (nM)": "2.21", "seen in": "1 of 6"}
{"CDR-H1": "DFDLNSYGIS", "CDR-H2": "VIYSDGRRTFYGDSVK", "CDR-H3": "GNAAGTFDS", "mean log10 Kd (nM)": "not detected", "seen in": "0 of 6"}
{"CDR-H1": "GFTLNSYGIS", "CDR-H2": "VIYSDGRRTFYGDSVK", "CDR-H3": "GRAAGTFLD", "mean log10 Kd (nM)": "not detected", "seen in": "0 of 6"}
{"CDR-H1": "GFNLNSYGIS", "CDR-H2": "VIYSDGRRTFYADDVK", "CDR-H3": "GKAAGTFDS", "mean log10 Kd (nM)": "0.96", "seen in": "6 of 6"}
{"CDR-H1": "GFSLNSYGIS", "CDR-H2": "VIYSDGRRTFYADSVK", "CDR-H3": "GSAAGTFDK", "mean log10 Kd (nM)": "0.50", "seen in": "6 of 6"}
{"CDR-H1": "GFDLDEYGIS", "CDR-H2": "VIYADGKRTAYSDKVK", "CDR-H3": "GNVAGTFDV", "mean log10 Kd (nM)": "-0.23", "seen in": "6 of 6"}
{"CDR-H1": "GFDIQEYGVS", "CDR-H2": "VIYADGNRSQYSDNVK", "CDR-H3": "GIIGDNVVI", "mean log10 Kd (nM)": "not detected", "seen in": "0 of 6"}
{"CDR-H1": "GFDLDEYGIS", "CDR-H2": "VIYADGMRTYYADSVK", "CDR-H3": "GNVAGTFDV", "mean log10 Kd (nM)": "0.05", "seen in": "6 of 6"}
{"CDR-H1": "GFTLGSYGIS", "CDR-H2": "VIYSDGRRAFYGDSVK", "CDR-H3": "GRAAGTFDS", "mean log10 Kd (nM)": "not detected", "seen in": "0 of 6"}
{"CDR-H1": "GFDLNSYGIS", "CDR-H2": "VIYSDGRRTFYGDSVK", "CDR-H3": "GRAAWTYDS", "mean log10 Kd (nM)": "not detected", "seen in": "0 of 6"}
{"CDR-H1": "GFDLNEFGIS", "CDR-H2": "VIYADGVRTFYTDNVK", "CDR-H3": "GINVVAEVI", "mean log10 Kd (nM)": "not detected", "seen in": "0 of 6"}
{"CDR-H1": "GFTLNSYGIS", "CDR-H2": "VIYADGRRAFYGDSVK", "CDR-H3": "GRAAGTFDS", "mean log10 Kd (nM)": "0.99", "seen in": "6 of 6"}
{"CDR-H1": "GFTLNSYGIS", "CDR-H2": "VIYADGRRTAYGDSVK", "CDR-H3": "GRAAGTFDL", "mean log10 Kd (nM)": "-0.20", "seen in": "6 of 6"}
{"CDR-H1": "GFSLDEYGIS", "CDR-H2": "VIYADGLRSFYQDQVK", "CDR-H3": "GQLALSLDT", "mean log10 Kd (nM)": "not detected", "seen in": "0 of 6"}
{"CDR-H1": "GFSLDEYGIS", "CDR-H2": "VIYADGQRKHYADSVK", "CDR-H3": "GLIDGYYFA", "mean log10 Kd (nM)": "not detected", "seen in": "0 of 6"}
{"CDR-H1": "GFTINSYGIS", "CDR-H2": "VIYSDGRRTFYADSVK", "CDR-H3": "GRAEGTFDS", "mean log10 Kd (nM)": "not detected", "seen in": "0 of 6"}
{"CDR-H1": "GFDLNEYGIS", "CDR-H2": "VIYADGMRQAYADDVK", "CDR-H3": "GNVAGTFDV", "mean log10 Kd (nM)": "-0.18", "seen in": "6 of 6"}
{"CDR-H1": "GFTLNSYGIS", "CDR-H2": "VIYSDGKRTFYIDSVK", "CDR-H3": "GKAAGTFDS", "mean log10 Kd (nM)": "not detected", "seen in": "0 of 6"}
{"CDR-H1": "GFDLEDYGIS", "CDR-H2": "VIYADGRRTAYIDSVK", "CDR-H3": "GEEAGTFDV", "mean log10 Kd (nM)": "-0.26", "seen in": "6 of 6"}
{"CDR-H1": "GFNLNSYGIS", "CDR-H2": "VIYSDGRRTFYGDAVK", "CDR-H3": "GQEAGTFDS", "mean log10 Kd (nM)": "0.20", "seen in": "6 of 6"}
{"CDR-H1": "GFDLNEYGIS", "CDR-H2": "VIYADGVRTFYSDSVK", "CDR-H3": "GQNAGTFDV", "mean log10 Kd (nM)": "-0.47", "seen in": "6 of 6"}
{"CDR-H1": "GFDLDEYGIS", "CDR-H2": "VIYADGMRTFYTDSVK", "CDR-H3": "GEEAGTFDA", "mean log10 Kd (nM)": "-0.10", "seen in": "6 of 6"}

Extract of 3 entries:

| CDR-H1 | CDR-H2 | CDR-H3 | mean log10 Kd (nM) | seen in |
|---|---|---|---|---|
| GFDLEDYGIS | VIYADGRRTAYIDSVK | GEEAGTFDV | -0.26 | 6 of 6 |
| GFNLNSYGIS | VIYSDGRRTFYGDAVK | GQEAGTFDS | 0.20 | 6 of 6 |
| GFTINSYGIS | VIYSDGRRTFYADSVK | GRAEGTFDS | not detected | 0 of 6 |